Protein sequences, listed by entry. Tags and fused reporters are not part of them.
UniProt Q15858, whole entry: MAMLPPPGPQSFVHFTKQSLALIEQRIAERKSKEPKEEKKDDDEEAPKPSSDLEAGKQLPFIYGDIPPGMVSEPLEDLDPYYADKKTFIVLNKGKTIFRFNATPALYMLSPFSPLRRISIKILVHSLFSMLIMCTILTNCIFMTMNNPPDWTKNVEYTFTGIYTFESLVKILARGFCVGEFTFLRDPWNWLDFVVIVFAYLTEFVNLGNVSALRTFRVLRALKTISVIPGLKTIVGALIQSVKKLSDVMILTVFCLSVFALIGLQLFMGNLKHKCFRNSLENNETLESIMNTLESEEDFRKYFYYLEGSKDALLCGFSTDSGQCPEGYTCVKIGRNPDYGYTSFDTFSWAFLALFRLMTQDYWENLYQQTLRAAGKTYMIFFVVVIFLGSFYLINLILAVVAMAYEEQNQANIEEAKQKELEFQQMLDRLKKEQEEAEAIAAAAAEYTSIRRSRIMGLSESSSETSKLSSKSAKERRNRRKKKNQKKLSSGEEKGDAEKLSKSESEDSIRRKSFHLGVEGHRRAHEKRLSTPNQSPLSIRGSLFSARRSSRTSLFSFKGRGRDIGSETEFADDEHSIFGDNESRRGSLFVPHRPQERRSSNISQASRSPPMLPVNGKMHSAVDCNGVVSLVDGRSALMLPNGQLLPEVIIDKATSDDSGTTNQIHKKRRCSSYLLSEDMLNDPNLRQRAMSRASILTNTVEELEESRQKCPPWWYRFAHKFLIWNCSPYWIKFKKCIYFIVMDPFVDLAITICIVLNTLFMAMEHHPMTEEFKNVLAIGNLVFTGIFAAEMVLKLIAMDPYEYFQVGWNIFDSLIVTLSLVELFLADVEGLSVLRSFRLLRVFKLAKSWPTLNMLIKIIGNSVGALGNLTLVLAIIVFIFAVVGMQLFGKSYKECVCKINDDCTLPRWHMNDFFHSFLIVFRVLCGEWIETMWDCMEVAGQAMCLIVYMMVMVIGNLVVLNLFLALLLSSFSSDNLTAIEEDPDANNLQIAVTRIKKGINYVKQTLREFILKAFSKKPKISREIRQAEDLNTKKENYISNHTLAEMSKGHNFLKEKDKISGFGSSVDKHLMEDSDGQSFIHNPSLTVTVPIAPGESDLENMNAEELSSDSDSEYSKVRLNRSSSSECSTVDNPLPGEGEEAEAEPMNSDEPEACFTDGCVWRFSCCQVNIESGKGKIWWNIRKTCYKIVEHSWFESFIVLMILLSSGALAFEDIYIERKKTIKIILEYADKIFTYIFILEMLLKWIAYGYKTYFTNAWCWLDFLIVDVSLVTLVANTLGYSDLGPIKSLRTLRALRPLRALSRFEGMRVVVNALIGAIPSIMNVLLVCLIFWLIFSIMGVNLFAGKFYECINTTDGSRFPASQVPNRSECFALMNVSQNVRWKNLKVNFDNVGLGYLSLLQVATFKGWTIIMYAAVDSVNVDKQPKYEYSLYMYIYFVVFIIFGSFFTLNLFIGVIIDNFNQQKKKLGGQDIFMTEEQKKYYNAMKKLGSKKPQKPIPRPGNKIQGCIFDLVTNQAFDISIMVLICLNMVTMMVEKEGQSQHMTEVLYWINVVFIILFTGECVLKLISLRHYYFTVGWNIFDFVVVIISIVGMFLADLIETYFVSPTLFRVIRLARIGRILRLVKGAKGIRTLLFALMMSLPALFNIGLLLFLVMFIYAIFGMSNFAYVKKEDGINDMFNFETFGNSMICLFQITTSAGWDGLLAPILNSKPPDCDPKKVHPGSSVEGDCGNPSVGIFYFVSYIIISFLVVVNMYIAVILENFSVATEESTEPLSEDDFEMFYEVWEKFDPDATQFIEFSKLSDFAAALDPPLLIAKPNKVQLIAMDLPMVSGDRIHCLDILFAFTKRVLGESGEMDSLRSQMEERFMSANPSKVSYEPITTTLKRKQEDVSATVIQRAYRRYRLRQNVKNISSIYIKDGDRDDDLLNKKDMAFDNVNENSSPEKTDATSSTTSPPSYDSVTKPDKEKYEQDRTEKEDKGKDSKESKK

According to ChEMBL document CHEMBL3886193, “Bicyclic sulfonamide compounds as sodium channel inhibitors” (2015):

Biological target: Sodium channel protein type 9 subunit alpha (Homo sapiens, UniProt Q15858)
Test: Compound effects were measured on a partially inactivated state of the sodium channel. Cells were clamped to a holding potential yielding 20 to 50% inactivation. To elicit sodium current, channels were activated by pulsing to -10 mV for 20 msec. This voltage protocol was repeated at a rate of 0.1 Hz throughout the experiment.
Assay type: cell-based, Sf9

Row | IC50 | SMILES
1 | 17 nM | COc1cc(-c2cccc(Cl)c2C)c(C)cc1-n1c(=O)ccc2cc(S(=O)(=O)Nc3ncccn3)ccc21
2 | 17 nM | COc1cc(-c2ccc(Cl)c(C#N)c2)c(F)cc1-n1c(=O)ccc2cc(S(=O)(=O)Nc3cccnn3)ccc21
